ChEMBL document CHEMBL6127132, “Design, Synthesis, and Biological Evaluation of Novel Diaminopyrimidine Macrocycles as Fourth Generation Reversible EGFR Inhibitors That Overcome Clinical Resistance to Osimertinib Mediated by C797S Mutation” (J Med Chem, 2024)

Protein sequences, listed by entry. Tags and fused reporters are not part of them. Residues count along the entry.
UniProt P00533, 25-1210 T790M/L858R limits assumed: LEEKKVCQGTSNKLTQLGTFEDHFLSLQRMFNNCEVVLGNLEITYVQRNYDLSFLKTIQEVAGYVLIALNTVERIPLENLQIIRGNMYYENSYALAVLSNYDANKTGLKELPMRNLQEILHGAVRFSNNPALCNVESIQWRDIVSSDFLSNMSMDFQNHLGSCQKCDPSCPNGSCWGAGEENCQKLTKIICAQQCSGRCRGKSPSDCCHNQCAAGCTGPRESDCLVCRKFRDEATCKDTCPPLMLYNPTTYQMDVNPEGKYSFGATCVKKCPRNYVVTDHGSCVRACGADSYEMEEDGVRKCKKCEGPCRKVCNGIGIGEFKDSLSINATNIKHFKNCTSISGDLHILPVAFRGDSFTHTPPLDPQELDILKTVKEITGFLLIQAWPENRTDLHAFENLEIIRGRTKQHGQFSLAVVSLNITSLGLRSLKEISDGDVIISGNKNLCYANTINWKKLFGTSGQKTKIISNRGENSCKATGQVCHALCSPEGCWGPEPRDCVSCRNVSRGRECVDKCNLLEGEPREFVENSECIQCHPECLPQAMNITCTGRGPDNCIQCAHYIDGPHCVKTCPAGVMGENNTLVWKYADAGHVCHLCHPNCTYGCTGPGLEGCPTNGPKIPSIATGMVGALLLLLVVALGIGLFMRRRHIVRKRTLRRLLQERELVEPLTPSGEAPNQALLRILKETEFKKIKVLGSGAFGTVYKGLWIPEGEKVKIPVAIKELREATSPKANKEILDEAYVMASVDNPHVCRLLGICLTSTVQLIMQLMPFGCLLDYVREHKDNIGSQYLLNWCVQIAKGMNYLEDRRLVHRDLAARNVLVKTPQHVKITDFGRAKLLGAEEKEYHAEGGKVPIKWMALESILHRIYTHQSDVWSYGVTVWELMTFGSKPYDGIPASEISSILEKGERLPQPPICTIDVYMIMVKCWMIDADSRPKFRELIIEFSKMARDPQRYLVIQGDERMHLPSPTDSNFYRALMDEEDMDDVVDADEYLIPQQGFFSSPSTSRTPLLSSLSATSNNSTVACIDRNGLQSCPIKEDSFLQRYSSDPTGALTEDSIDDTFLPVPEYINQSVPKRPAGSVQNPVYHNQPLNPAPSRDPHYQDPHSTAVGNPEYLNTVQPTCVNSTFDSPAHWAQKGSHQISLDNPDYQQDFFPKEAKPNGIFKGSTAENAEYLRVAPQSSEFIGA
UniProt P00533, whole entry, looked up, stated change not applied: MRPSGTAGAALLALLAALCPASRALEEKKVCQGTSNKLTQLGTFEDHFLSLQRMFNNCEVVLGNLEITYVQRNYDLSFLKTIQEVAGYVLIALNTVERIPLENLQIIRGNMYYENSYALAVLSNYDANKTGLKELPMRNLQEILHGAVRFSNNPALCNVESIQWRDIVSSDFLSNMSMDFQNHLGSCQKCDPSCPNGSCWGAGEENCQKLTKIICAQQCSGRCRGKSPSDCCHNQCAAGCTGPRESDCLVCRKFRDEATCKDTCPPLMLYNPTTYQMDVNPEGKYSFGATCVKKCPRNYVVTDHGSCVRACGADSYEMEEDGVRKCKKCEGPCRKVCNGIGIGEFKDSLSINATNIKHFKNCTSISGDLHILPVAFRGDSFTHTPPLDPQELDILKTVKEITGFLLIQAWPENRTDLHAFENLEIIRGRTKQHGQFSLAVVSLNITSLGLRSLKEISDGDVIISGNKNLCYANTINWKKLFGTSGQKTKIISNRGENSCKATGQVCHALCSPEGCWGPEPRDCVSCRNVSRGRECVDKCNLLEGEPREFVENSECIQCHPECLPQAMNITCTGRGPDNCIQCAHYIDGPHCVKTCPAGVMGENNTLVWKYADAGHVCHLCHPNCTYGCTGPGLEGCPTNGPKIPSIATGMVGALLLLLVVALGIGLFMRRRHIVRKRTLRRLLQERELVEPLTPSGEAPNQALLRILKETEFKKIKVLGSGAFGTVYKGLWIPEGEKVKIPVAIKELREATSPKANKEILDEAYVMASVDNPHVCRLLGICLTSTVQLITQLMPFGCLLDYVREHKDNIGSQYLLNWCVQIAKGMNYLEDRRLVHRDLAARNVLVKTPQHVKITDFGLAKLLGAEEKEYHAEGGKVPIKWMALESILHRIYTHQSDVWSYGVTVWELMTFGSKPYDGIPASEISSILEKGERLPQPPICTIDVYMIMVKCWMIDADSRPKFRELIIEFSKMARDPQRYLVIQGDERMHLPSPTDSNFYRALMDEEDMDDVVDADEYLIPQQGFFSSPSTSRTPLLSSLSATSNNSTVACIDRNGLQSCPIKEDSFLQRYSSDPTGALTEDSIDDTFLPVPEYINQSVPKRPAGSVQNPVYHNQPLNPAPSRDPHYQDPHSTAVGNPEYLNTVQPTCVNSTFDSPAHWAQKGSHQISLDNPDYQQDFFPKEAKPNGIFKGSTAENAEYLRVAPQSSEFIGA

Assays:
[1] = biological target: Epidermal growth factor receptor (Homo sapiens, UniProt P00533, L858R/T790M); assay: Inhibition of recombinant N-terminal GST-tagged human EGFR T790M/L858R mutant (696 to end residues) extracted from baculovirus infect Sf21 insect cells incubated for 1 hrs by spectrophotometric analysis
[2] = biological target: Epidermal growth factor receptor (Homo sapiens, UniProt P00533, C797S/EX19DEL/T790M); assay: Inhibition of recombinant N-terminal GST-tagged human EGFR 19del/T790M/C797S mutant (668 to end residues) extracted from Sf9 insect cells incubated for 1 hrs by spectrophotometric analysis; format: cell-free

Question: `CCC(=O)Nc1cc(Nc2nccc(-c3cn(C)c4ccccc34)n2)c(OC)cc1N(C)CCN(C)C` was tested. Which IC50 [1] did it give?
Answer: Its IC50 is 261 nM.

Question: What about the IC50 [2] of the same compound?
Answer: The IC50 was 280 nM.
